Experimental data published in PubChem BioAssay AID1359 (The Scripps Research Institute Molecular Screening Center, 2008).
The entries are a selection whose mix differs from that of the whole data set. Calls of active or inactive are those of the source. No stated cut-off is given here; in the data, active means activation above about 27%; inactive means the rest.

Sequences of proteins named here, by UniProt entry; tags and fusion partners are left off.
UniProt P49146, whole entry, looked up: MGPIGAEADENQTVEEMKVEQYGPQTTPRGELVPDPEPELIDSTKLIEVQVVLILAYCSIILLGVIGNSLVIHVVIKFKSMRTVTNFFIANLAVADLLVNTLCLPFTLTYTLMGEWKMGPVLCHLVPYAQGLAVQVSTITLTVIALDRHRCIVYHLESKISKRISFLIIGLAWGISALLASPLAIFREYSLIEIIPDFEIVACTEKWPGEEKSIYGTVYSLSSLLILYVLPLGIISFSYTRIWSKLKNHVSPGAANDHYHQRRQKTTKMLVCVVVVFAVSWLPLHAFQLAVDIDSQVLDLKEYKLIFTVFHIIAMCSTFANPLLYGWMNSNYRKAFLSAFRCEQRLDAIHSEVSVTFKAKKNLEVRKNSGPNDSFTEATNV

molecular target: Neuropeptide Y receptor type 2 (Homo sapiens) (UniProt P49146); test: human Y2 receptor positive modulation or activation – cell-based, primary screen (AID 1359); conditions: cells expressing NPY-Y2, potentiator/agonist read-out; at 3.6 µM; active compounds read high;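 further: cells stimulated with NPY near EC25 plus isoproterenol at EC100; 0% = vehicle plus submaximal agonist and 100% = vehicle plus saturating agonist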

Structure (SMILES) | activation
O=[As](O)(c1ccccc1)c1ccc(O)cc1 | inactive: 6.63%
CC(=O)NC(SC(=S)N(C)C)C(Cl)(Cl)Cl (stereo not given) | inactive: 16.8%
O=[N+]([O-])c1ncn(CCn2cnc([N+](=O)[O-])n2)n1 | inactive: -4.2%
Cc1ccc(NP(=O)(Oc2cccc(C)c2)Oc2cccc(C)c2)nc1 | inactive: -8.64%
CCOC(=O)NC(Sc1ccccc1)C(Cl)(Cl)Cl (stereo not given) | inactive: -9.21%
c1ccc(-c2nn[nH]n2)c(-c2nn[nH]n2)c1 | inactive: -6.82%
O=C(NC1CCS(=O)(=O)C1)NP(=S)(Oc1ccccc1)Oc1ccccc1 (stereo not given) | inactive: -1.07%
CCNC(=S)/N=C(\N)N[N+](=O)[O-] | inactive: -2.13%
O=c1c2cc([N+](=O)[O-])ccc2[nH]c2c([N+](=O)[O-])cc([N+](=O)[O-])cc12 | inactive: 10.8%
CN(C)C(=O)Oc1noc2ccccc12 | inactive: -6.08%
Cc1ccccc1OP(=O)(Nc1ccccn1)Oc1ccccc1C | inactive: -2.92%
CCC(=O)N1C2C3N(C(=O)CC)C1C1N(C(=O)CC)C(C(N1C(=O)CC)N3C(=O)CC)N2C(=O)CC | inactive: 15.2%
CC(=O)NC(SC(=S)N(CC(C)C)CC(C)C)C(Cl)(Cl)Cl (stereo not given) | inactive: -14.4%
Cc1ccc(OP(=O)(Nc2ccccn2)Oc2ccc(C)cc2)cc1 | inactive: -1.11%
COC(=O)c1cc2c(s1)N=C(c1ccccc1)N(C)P2(=O)N1CCOCC1 (stereo not given) | inactive: 3.11%
CC(C)(C)C(=O)NC(Sc1ccccc1)C(Cl)(Cl)Cl (stereo not given) | inactive: 3.62%
CCOc1ccc(C2=NCC(CBr)S2)cc1 (stereo not given) | inactive: 12.2%
O=P1(Nc2nc3ccc(Cl)cc3s2)COc2ccccc2O1 (stereo not given) | inactive: -5.82%
CC(=O)Nc1ccc(Oc2c([N+](=O)[O-])cc([N+](=O)[O-])cc2[N+](=O)[O-])cc1 | inactive: -9.48%
CC(=O)Nc1ccc([As](=O)(O)O)c(O)c1 | inactive: -8.58%
